# Measured values published in ChEMBL document CHEMBL1133464, “Ligands for glutamate receptors: design and therapeutic prospects” (J Med Chem, 2000).
# Sequences of proteins named here, by UniProt entry; tags and fusion partners are left off. A change or cut given only in a name is not applied to a line headed by its entry.
# UniProt Q13255: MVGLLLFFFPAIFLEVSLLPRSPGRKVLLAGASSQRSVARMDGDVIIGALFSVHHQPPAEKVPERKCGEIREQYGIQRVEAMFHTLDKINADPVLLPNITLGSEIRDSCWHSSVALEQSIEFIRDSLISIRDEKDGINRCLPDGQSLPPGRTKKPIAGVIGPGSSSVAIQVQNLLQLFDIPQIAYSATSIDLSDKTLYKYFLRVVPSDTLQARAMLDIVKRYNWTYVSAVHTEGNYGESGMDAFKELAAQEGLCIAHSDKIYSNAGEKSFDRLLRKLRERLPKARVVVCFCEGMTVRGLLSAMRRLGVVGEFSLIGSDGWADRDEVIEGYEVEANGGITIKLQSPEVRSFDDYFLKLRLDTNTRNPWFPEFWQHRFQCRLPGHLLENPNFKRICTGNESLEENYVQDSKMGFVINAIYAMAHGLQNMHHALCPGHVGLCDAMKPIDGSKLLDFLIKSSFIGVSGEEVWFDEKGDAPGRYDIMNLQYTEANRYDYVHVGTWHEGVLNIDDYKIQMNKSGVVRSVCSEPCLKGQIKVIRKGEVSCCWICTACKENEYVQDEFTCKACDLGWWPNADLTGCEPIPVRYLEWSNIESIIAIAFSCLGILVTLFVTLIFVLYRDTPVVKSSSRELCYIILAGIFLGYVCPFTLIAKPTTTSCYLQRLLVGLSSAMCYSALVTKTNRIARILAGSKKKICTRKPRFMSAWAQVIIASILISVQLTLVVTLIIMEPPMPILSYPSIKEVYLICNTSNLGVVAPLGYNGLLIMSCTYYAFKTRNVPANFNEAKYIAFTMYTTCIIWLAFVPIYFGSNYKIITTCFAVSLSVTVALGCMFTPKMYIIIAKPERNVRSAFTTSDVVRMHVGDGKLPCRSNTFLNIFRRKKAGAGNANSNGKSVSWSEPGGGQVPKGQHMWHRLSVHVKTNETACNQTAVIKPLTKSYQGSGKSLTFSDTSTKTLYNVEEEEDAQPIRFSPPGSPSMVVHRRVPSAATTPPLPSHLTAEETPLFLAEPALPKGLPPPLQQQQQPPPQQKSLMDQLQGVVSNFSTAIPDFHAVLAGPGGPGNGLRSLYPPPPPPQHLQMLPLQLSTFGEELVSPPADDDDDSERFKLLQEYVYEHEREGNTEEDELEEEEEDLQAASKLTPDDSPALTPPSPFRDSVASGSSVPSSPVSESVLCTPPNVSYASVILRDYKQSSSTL
# UniProt Q14832: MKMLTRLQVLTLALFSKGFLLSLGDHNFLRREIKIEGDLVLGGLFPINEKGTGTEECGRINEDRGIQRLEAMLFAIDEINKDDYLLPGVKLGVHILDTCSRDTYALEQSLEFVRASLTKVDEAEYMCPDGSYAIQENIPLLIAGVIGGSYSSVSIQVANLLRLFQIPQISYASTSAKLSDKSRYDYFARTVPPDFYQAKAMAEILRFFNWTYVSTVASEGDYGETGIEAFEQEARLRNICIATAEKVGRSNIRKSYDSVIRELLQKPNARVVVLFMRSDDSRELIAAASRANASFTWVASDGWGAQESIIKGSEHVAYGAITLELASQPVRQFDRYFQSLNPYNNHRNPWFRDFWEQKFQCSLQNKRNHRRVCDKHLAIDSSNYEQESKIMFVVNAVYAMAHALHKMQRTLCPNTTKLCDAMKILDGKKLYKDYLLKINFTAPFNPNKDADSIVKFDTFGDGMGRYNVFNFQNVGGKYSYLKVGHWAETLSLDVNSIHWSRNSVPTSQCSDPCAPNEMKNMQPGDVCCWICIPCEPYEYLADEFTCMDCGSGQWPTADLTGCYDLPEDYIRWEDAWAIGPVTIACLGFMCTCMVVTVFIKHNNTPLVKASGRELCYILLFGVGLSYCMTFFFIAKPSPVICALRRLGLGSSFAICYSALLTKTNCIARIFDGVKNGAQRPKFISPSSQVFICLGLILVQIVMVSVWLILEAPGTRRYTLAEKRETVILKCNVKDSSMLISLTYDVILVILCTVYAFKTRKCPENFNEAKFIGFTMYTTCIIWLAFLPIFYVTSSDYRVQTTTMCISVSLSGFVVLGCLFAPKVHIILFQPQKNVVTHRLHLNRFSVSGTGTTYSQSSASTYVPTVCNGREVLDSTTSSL
# What was measured:
# [1] = target: Metabotropic glutamate receptor 1 (Homo sapiens, UniProt Q13255); assay: Agonist potency against cloned human metabotropic glutamate receptor 1; format: functional
# [2] = target: Metabotropic glutamate receptor 3 (Homo sapiens, UniProt Q14832); assay: Agonist potency against cloned Metabotropic glutamate receptor 3 (mGluR-3).; format: functional
structure (smiles),measurement,setting,value
N[C@@]1(C(=O)O)CC[C@@H](C(=O)O)C1,Ki,[1],42 µM
same,Ki,[2],98 µM
